The subject of one series is Cerebellar Cultures. The settings on record: rat.
A short description of another series: in vitro. The settings on record: rat, cerebellar cell cultures.
For a further series, the system named is guinea-pig ileum. Kind of series: tissue or blood. The settings on record: Cavia porcellus, read-out: Percent relaxation.
For series [1] the following is noted: water.

These results are taken from patent publication EP0812190B1 (priority 1993, dated 1995).

The term CC50 denotes the concentration at which the toxic effect on the cells reaches its halfway point. The low end stands for greater toxicity to the cells, the high end for lower toxicity to the cells. For the compound `C#CCN[C@@H]1CCc2ccccc21.CS(=O)(=O)O` [[R](+)PAI Mesylate, R-(+)-N-propargyl-1-aminoindan mesylate], in the series on Cerebellar Cultures, the “Toxicity TD25” value is reported as “(Toxicity TD25 = 30 µM; TD50 = 85 µM; TD100 = 320 µM)” and the “Toxicity TD100” value was “(Toxicity TD25 = 30 µM; TD50 = 85 µM; TD100 = 320 µM)”. The midpoint of cytotoxicity in the series “in vitro”, the CC50, lay at 85 µM. Take `C#CCN[C@@H]1CCc2ccccc21` [[R](+)PAI, R(+)-N-propargyl-1-aminoindan]: in the series with guinea-pig ileum, the inhibition at 30 µM was determined as 31%. On to `C#CCN[C@H]1CCc2ccccc21` [[S](-)PAI, S-(-)-N-propargyl-1-aminoindan], for which, in the series on guinea-pig ileum, the inhibition at 4 µM was 15% and the inhibition at 10 µM turned out to be 30%. One may read the Solubility as the concentration that dissolves in the medium under given conditions. Lower therefore signals little dissolved substance. tartarate returned a Solubility in series [1] of 33 mg/mL.
